Assays:
[1] = Suppression of transition to β-form crystal by habit modifier in α-form crystal slurry (Example 1); assay type: physicochemical; settings: 0.45 g added to 9 g α-form crystals in 30 mL water; 25° C., 24 hr; microscopic observation
Description: α-Form crystals of reduced glutathione (9 g) and water (30 mL) were mixed in a glass bottle. […] The glass bottle was shaken in a tray dryer set to 25° C. for 24 hr.

[2] = Concentration crystallization of reduced glutathione with habit modifier, production method (1) (Example 5); assay type: physicochemical; settings: 2.5 g added to 50 g reduced glutathione; concentrate cooled to 25° C., stirred 24 hr; microscopic observation
Description: Reduced glutathione (50 g) and water (500 mL) were added to a 1 L beaker. […] The prepared solution (filtrate) was concentrated by an evaporator such that the concentration of reduced glutathione was not less than the saturation solubility of α-form crystal to perform concentration crystallization of reduced glutathione.

[3] = 430 nm; crystals immersed in 5 wt % additive solution, kept at 40° C. 3 hr, 1 g dissolved in 10 mL water at 25° C.

With oxidized glutathione [GSSG] the “transition of α-form crystal to β-form crystal” value [1] was “suppression of the transition”, the crystal form produced [2] was “produced α-form crystal alone” and the “permeability (%)” value [3] was 99%.

— patent US10407463B2, “Method for producing alpha-form crystal of reduced glutathione, and method for storing said crystal” (KYOWA HAKKO BIO CO., LTD., priority 2015, dated 2019)
